Source: patent US20230295259A1 (Protagonist Therapeutics, Inc., priority 2020, published 2023)

T1: human ferroportin (Homo sapiens, UniProt Q9NP59)
T1 construct: expressed in transfected cells
T1 sequence (Q9NP59 1-571): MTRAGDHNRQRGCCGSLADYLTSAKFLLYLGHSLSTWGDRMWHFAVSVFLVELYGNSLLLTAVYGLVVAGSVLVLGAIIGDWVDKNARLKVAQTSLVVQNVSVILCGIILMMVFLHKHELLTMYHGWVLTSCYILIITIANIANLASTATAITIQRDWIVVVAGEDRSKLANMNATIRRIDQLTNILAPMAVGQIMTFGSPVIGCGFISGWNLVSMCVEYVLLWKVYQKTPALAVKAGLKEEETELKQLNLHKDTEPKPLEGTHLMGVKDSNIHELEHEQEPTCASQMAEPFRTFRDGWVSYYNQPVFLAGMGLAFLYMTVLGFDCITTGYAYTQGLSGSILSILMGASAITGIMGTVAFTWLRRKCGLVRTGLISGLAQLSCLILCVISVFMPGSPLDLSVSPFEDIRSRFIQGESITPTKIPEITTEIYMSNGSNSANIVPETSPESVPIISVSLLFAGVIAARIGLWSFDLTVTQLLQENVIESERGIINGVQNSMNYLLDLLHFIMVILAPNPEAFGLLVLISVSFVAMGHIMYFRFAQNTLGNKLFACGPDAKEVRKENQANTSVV

T2: ferroportin endogenously expressed on T47D human breast carcinoma cells (human, UniProt Q9NP59 1-571)
T2 sequence (looked up): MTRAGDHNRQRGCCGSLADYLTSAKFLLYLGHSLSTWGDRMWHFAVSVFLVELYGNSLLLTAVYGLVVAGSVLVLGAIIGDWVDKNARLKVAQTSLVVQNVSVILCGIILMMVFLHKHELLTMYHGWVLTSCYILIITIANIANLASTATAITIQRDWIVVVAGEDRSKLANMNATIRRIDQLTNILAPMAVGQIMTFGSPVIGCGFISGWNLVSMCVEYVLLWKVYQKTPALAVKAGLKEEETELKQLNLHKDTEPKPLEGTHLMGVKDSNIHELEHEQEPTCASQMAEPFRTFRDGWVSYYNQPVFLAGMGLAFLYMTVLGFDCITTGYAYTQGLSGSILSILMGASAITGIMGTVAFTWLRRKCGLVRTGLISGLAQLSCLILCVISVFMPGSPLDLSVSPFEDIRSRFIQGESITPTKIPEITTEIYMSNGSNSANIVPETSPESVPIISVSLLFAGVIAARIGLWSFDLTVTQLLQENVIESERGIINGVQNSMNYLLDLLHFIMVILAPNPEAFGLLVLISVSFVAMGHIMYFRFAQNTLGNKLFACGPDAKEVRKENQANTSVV

B1: Compound 306 (peptide)
peptide: XETHXPCIXXXC
modifications: Isovaleric Acid-E-T-H-[Dpa]-P-C-I-[Lys(PEG12_C18 acid)]-[bhPhe]-[(D)Lys]-C-NH2

What follows are molecules tested against T1, human ferroportin (assay: FPN activity assay: internalization/degradation of ferroportin-GFP in stably transfected HEK293 cells (decrease in GFP fluorescence)). Conditions: Table 2A; HEK293 cells expressing human ferroportin-GFP, at least 18 hours incubation; read-out: FPN EC50.
Format: cell-based
Experimental: Following internalization, the ferroportin protein is degraded.
A retro inverse peptide is a peptide with a reversed sequence in all D amino acids. An example is that Hy-Glu-Thr-His-NH2 becomes Hy-DHis-DThr-DGlu-NH2. The EC50 of these reference compounds for ferroportin internalization/degradation was determined according to the FPN activity assay described above. These peptides served as control standards.
These values were determined as described herein.
With `CCCCCCCCCCCCCCCC(=O)NCCCCCC(=O)NCCCC[C@@H]1NC(=O)C[C@H](Cc2ccccc2)NC(=O)[C@@H](CCCCN)NC(=O)[C@H]([C@@H](C)CC)NC(=O)[C@@H](NC(=O)[C@@H]2CCCN2C(=O)C(NC(=O)[C@H](Cc2cnc[nH]2)NC(=O)[C@@H](NC(=O)[C@H](CCC(=O)O)NC(=O)CC(C)C)[C@@H](C)O)C(c2ccccc2)c2ccccc2)CSSC[C@@H](C(N)=O)NC(=O)[C@@H](CCCCN)NC1=O` (stereo partly shown) [Compound 6, Isovaleric Acid-E-T-H-[Dpa]-P-[Cys]-I-[(D)Lys]-[bhPhe]-[Lys(Ahx_Palm)]-[(D)Lys]-[Cys]-NH2] the DC50 was 18.6 nM. Work on `CC[C@H](C)[C@@H]1NC(=O)[C@@H](NC(=O)[C@@H]2CCCN2C(=O)[C@@H](NC(=O)[C@H](Cc2cnc[nH]2)NC(=O)[C@@H](NC(=O)[C@H](CCC(=O)O)NC(=O)CC(C)C)[C@@H](C)O)C(c2ccccc2)c2ccccc2)CSSC[C@@H](C(N)=O)NC(=O)[C@@H](CCCCN)NC(=O)C[C@H](Cc2ccccc2)NC(=O)[C@H](CCCCNC(=O)COCCOCCNC(=O)COCCOCCNC(=O)CC[C@H](NC(=O)CCCCCCCCCCCCCCCCC(=O)O)C(=O)O)NC1=O` [Compound 107, Isovaleric Acid-E-T-H-[Dpa]-P-[Cys]-I-[Lys(1Peg2_1Peg2_IsoGlu_C18_Diacid)]-[bhPhe]-[(D)Lys]-[Cys]-NH2] yielded a DC50 of 15.5 nM. With `CC[C@H](C)[C@@H]1NC(=O)[C@@H](NC(=O)[C@@H]2CCCN2C(=O)[C@@H](NC(=O)[C@H](Cc2cnc[nH]2)NC(=O)[C@@H](NC(=O)[C@H](CCC(=O)O)NC(=O)CC(C)C)[C@@H](C)O)C(c2ccccc2)c2ccccc2)CSSC[C@@H](C(N)=O)NC(=O)[C@@H](CCCCN)NC(=O)C[C@H](Cc2ccccc2)NC(=O)[C@H](CCCCNC(=O)COCCOCCNC(=O)COCCOCCNC(=O)CCCCCCCCCCCCCCCCC(=O)O)NC1=O` [Compound 114, Isovaleric Acid-E-T-H-[Dpa]-P-[Cys]-I-[Lys(1Peg2_1Peg2_C18_Diacid)]-[bhPhe]-[(D)Lys]-[Cys]-NH2] the DC50 was 12 nM.

Same assay, conditions: Table 2B; HEK293 cells expressing human ferroportin-GFP, at least 18 hours incubation; read-out: FPN EC50
For `CC[C@H](C)[C@@H]1NC(=O)[C@@H](NC(=O)[C@@H]2CCCN2C(=O)[C@@H](NC(=O)[C@H](Cc2cnc[nH]2)NC(=O)[C@@H](NC(=O)[C@H](CCC(=O)OC)NC(=O)CC(C)C)[C@@H](C)O)C(c2ccccc2)c2ccccc2)CSSC[C@@H](C(N)=O)NC(=O)[C@@H](CCCCN)NC(=O)C[C@H](Cc2ccccc2)NC(=O)[C@H](CCCCNC(=O)COCCOCCNC(=O)COCCOCCNC(=O)[C@H](CN)NC(=O)CCCCCCCCCCCCCCCCC(=O)O)NC1=O` [Compound 279, Isovaleric Acid-[Glu_OMe]-T-H-[Dpa]-P—C—I-[Lys(1PEG2_1PEG2_Dap_C18_Diacid)]-[bhPhe]-[(D)Lys]-C—NH2], the DC50 was 11.4 nM.

Same assay, conditions: Table 2D (Illustrative Monomer Hepcidin Analogues); ferroportin-GFP HEK293 cells; read-out: IC50: FPN internalisation
`CC[C@H](C)[C@@H]1NC(=O)[C@@H](NC(=O)[C@@H]2CCCN2C(=O)[C@@H](NC(=O)[C@H](Cc2ccncc2)NC(=O)[C@@H](NC(=O)[C@H](CCC(=O)OC)NC(=O)CC(C)C)[C@@H](C)O)C(c2ccccc2)c2ccccc2)CCSSC(C(N)=O)NC(=O)[C@@H](CCCCN)NC(=O)C[C@H](Cc2ccccc2)NC(=O)[C@H](CCCCNC(=O)COCCOCCNC(=O)COCCOCCNC(=O)CCCCCNC(=O)CCCCCCCCCCCCCCCCC(=O)O)NC1=O` (stereo partly shown) [Compound 496] showed a DC50 of 10.6 nM. Work on `CC[C@H](C)[C@@H]1NC(=O)[C@@H](NC(=O)[C@@H]2CCCN2C(=O)[C@@H](NC(=O)[C@H](Cc2cnc[nH]2)NC(=O)[C@@H](NC(=O)[C@H](CCC(=O)OC)NC(=O)CC(C)C)[C@@H](C)O)C(c2ccccc2)c2ccccc2)CSSC[C@@H](C(N)=O)CC(=O)[C@@H](CCCCN)NC(=O)[C@H](CCc2ccccc2)NC(=O)[C@H](CCCCNC(=O)COCCOCCNC(=O)COCCOCCNC(=O)[C@H](CN)NC(=O)CCCCCCCCCCCCCCCCC(=O)O)NC1=O` [Compound 508] yielded a DC50 of 24.2 nM. `CC[C@H](C)[C@@H]1NC(=O)[C@@H](NC(=O)[C@@H]2CCCN2C(=O)[C@@H](NC(=O)[C@H](Cc2cnc[nH]2)NC(=O)[C@@H](NC(=O)[C@H](CCC(=O)O)NC(=O)CC(C)C)[C@@H](C)O)C(c2ccccc2)c2ccccc2)CSSC[C@@H](C(N)=O)NC(=O)[C@@H](CCCCN)NC(=O)C[C@H](Cc2ccccc2)NC(=O)[C@H](CCCCNC(=O)CCCOCCOCCOCCOCCOCCOCCOCCOCCOCCOCCOCCNC(=O)CCOCCOCCOCCCCCCOCCOCCOCCOCCOCCOCCOCCNC(=O)[C@@H](CN)NC(=O)CCCCCCCCCCCCCCCCC(=O)O)NC1=O` [Compound 516] was tested, and the DC50 was 18.8 nM. For `CC[C@H](C)[C@@H]1NC(=O)[C@@H](NC(=O)[C@@H]2CCCN2C(=O)[C@@H](NC(=O)[C@H](Cc2cnc[nH]2)NC(=O)[C@@H](NC(=O)[C@H](CCC(=O)OC)NC(=O)CC(C)C)[C@@H](C)O)C(c2ccccc2)c2ccccc2)CSSC[C@@H](C(N)=O)NC(=O)[C@@H](CCCCN)NC(=O)C[C@H](Cc2ccccc2)NC(=O)[C@H](CCCCNC(=O)CCOCCOCCOCCOCCOCCOCCOCCOCCCCCOCCOCCOCCNC(=O)CCOCCOCCOCCOCCOCCOCCOCCOCCOCCOCCOCCOCCNC(=O)[C@@H](CN)NC(=O)CCCCCCCCCCCCCCCCC(=O)O)NC1=O` [Compound 519], the DC50 was 24.7 nM. Molecule `CC[C@H](C)[C@@H]1NC(=O)[C@@H](NC(=O)[C@@H]2CCCN2C(=O)[C@@H](NC(=O)[C@H](Cc2cnc[nH]2)NC(=O)[C@@H](NC(=O)[C@H](CCC(=O)OC)NC(=O)CC(C)C)[C@@H](C)O)C(c2ccccc2)c2ccccc2)CSSC[C@@H](C(N)=O)NC(=O)[C@@H](CCCCNC(=O)CCOCCOCCOCCOCCOCCOCCOCCOCCOCCOCCOCCOC)NC(=O)C[C@H](Cc2ccccc2)NC(=O)[C@H](CCCCNC(=O)COCCOCCNC(=O)COCCOCCNC(=O)[C@H](CN)NC(=O)CCCCCCCCCCCCCCCCC(=O)O)NC1=O` [Compound 523] has a DC50 of 17 nM. In the case of `CC[C@H](C)[C@@H]1NC(=O)[C@@H](NC(=O)[C@@H]2CCCN2C(=O)[C@@H](NC(=O)[C@H](Cc2cnc[nH]2)NC(=O)[C@@H](NC(=O)[C@H](CCC(=O)O)NC(=O)CC(C)C)[C@@H](C)O)C(c2ccccc2)c2ccccc2)CSSC[C@@H](C(N)=O)NC(=O)[C@@H](CCCCNC(=O)CCOCCOCCOCCOCCOCCOCCOCCOCCOCCOCCOCCOC)NC(=O)C[C@H](Cc2ccccc2)NC(=O)[C@H](CCCCNC(=O)COCCOCCNC(=O)COCCOCCNC(=O)[C@H](CN)NC(=O)CCCCCCCCCCCCCCCCC(=O)O)NC1=O` [Compound 524], the DC50 is reported as 18.8 nM. Work on `CC[C@H](C)[C@@H]1NC(=O)[C@@H](NC(=O)[C@@H]2CCCN2C(=O)[C@@H](NC(=O)[C@H](Cc2cnc[nH]2)NC(=O)[C@@H](NC(=O)[C@H](CCC(=O)OC)NC(=O)CC(C)C)[C@@H](C)O)C(c2ccccc2)c2ccccc2)CSSC[C@@H](C(=O)N[C@H](CCCNC(=N)N)C(N)=O)NC(=O)[C@@H](CCCCN)NC(=O)C[C@H](Cc2ccccc2)NC(=O)[C@H](CCCCNC(=O)COCCOCCNC(=O)COCCOCCNC(=O)[C@H](CN)NC(=O)CCCCCCCCCCCCCCCCC(=O)O)NC1=O` [Compound 534] yielded a DC50 of 13.5 nM. `CC[C@H](C)[C@@H]1NC(=O)[C@@H](NC(=O)[C@@H]2CCCN2C(=O)[C@@H](NC(=O)[C@H](Cc2cnc[nH]2)NC(=O)[C@@H](NC(=O)[C@H](CCC(=O)OC)NC(=O)CC(C)C)[C@@H](C)O)C(c2ccccc2)c2ccccc2)CSSC[C@@H](C(N)=O)NC(=O)[C@@H](CCCNC(=N)N)NC(=O)C[C@H](Cc2ccccc2)NC(=O)[C@H](CCCCNC(=O)COCCOCCNC(=O)COCCOCCNC(=O)[C@H](CN)NC(=O)CCCCCCCCCCCCCCCCC(=O)O)NC1=O` [Compound 535] gave a DC50 of 21 nM.

These molecules were tested against T2, ferroportin endogenously expressed on … (assay: cell-based or functional assay). Conditions: not given.
In the case of B1, the “IC50: T47D Internalization MSA” value is reported as 0.99 nM.
